This note sets out measurements from ChEMBL document CHEMBL5042507, “One-Pot Procedure for the Synthesis of Asymmetric Substituted Ureido Benzene Sulfonamides as Effective Inhibitors of Carbonic Anhydrase Enzymes” (J Med Chem, 2022).

Each structure is given as a SMILES string.

This assay has as its target Carbonic anhydrase 2 (Homo sapiens, UniProt P00918).

For the molecule `NS(=O)(=O)c1cccc(NC(=O)Nc2ccccc2)c1`, the Ki (in general, the equilibrium dissociation constant of an inhibitor or competing ligand from its target) is 0.89 nM.
